The test system of one assay is SazCA. The note with it: SazCA over hCA I.

Molecules are shown by their SMILES. Values joined by “and” are separate entries in the source; they are usually repeats but may differ in a detail not shown here. Identical values can stand only once.

Consider `Nc1cc(C(Cl)=C(Cl)Cl)c(S(N)(=O)=O)cc1S(N)(=O)=O` [Clorsulon, 4-Amino-6-(1,2,2-trichlorovinyl)benzene-1,3-disulfonamide], for which, in the assay on SazCA, the “selectivity index (SI) with respect to hCA I” value stood at 580 fold. Also, the “SI (hCA I/SmCA)” value with SmCA is 20 and 20.09.
